In general, IC50 refers to the concentration that gives 50% inhibition. The low end stands for greater potency in that assay, the high end for weaker potency in that assay.

The subject of assay [1] is H1299 human lung adenocarcinoma (p53 null) cells. The assay can be described thus: cell proliferation assay, H1299. It counts as cell-based. Conditions: Table 3 summary of most active compounds. The source says:
(§1) In this Example, the warfarin neoglycosides of the invention were screened for anti-tumor activity in cell proliferation assays using the following tumor cells lines: A549—human lung adenocarcinoma; H1299—human lung adenocarcinoma (p53 null); HCT-15—human colorectal adenocarcinoma; HT-29—human colorectal adenocarcinoma; MCF7—human breast adenocarcinoma; NCI-H460—human lung adenocarcinoma; SF-268—human CNS adenocarcinoma; and SKOV-3—human ovarian adenocarcinoma.
(§2) All cell lines were maintained as previously reported (see Langenhan, J. M.; Peters, N. R.; Guzei, I. A.; Hoffmann, F. M.; Thorson, J. S. Proc. Natl. Acad. Sci. USA 2005, 102, 12305-12310, which is incorporated by reference herein). Cells were harvested using 0.25% trypsin and 0.1% EDTA and counted in a Cellometer Auto T4 cell counter (Nexcelom, Inc.) prior to dilution for assay plating. Cells were plated at a denity of 500 cells per well in 50 μL volumes in 384-well clear-bottom tissue culture plates (Corning-Costar, Inc.).
(§3) Compounds were added from the 384-well compound stock plates at a 1:100 dilution using a Biomek FX liquid handler equipped with a 384-channel head (Beckman Coulter, Inc.). […] Luminescence resulting from incubation with Calcein AM and EthD-1 was read using a Safire-2 microplate reader at the appropriate wavelengths. […] The luminescence of each plate was re-read to confirm the observed inhibition. […]

Assay [2] has as its system MCF7 human breast adenocarcinoma cells. Briefly: cell proliferation assay, MCF7. It is filed as cell-based. To be noted: Table 3 summary of most active compounds, listed as D-lyxose.
Excerpt: as §1, §2, §3

On to `CON(C(C)CC(c1ccccc1)c1c(O)c2ccccc2oc1=O)C1OCC(O)C(O)C1O` (mixture of isomers) [WARF Analog 25], for which the half-maximal inhibitory concentration (IC50) in assay [1] (listed as L-ribose) came to 35 µM.

For `CON(C(C)CC(c1ccccc1)c1c(O)c2ccccc2oc1=O)C1OCC(O)C(O)C1O` (mixture of isomers) [WARF Analog 6], the IC50 in assay [1] (listed as D-lyxose) and in assay [2] was 28 µM throughout.

The record behind these values is patent US8278436B2, “Glycosylated warfarin analogs and uses thereof” (priority 2008, dated 2012).
